Experimental findings from patent US4049795A, “Treatment of hemorrhagic shock” (priority 1974, dated 1977) are described below.

For this data set, the system named is rats. Kind of data set: Toxicity, intraperitoneal injection in rats.

As to `O=C(CO)CO` [dihydroxyacetone], the “deaths, repeated injection every 4 hours or every 3 hours” value (4.5 g/kg every 4 hours (first group) and every 3 hours (second group), 10 test animals) is “no deaths”. In addition, the “deaths, daily injection” value (7 g/kg intraperitoneally daily, five rats) is on record as “None of the animals died”. Also, the “signs noted when toxic doses were administered” value (toxic doses, rats) was “tremor and clonic spasms”.
